Experimental data taken from ChEMBL document CHEMBL5500414 (J Med Chem, 2024).
The source made the active and inactive calls. The rule behind the calls is not given here.

Columns and labels:
[1] = target: T1, Bcl-2-related protein A1 (Homo sapiens) (UniProt Q16548); assay: Inhibition of BFL-1 in BFL-1 overexpressing isogenic human MOLM-13 cells assessed as enhancement of venetoclax-induced increase in cytochrome c release in mitochondria at 15 uM in presence of doxycycline by Western blot analysis
T1 sequence (whole entry): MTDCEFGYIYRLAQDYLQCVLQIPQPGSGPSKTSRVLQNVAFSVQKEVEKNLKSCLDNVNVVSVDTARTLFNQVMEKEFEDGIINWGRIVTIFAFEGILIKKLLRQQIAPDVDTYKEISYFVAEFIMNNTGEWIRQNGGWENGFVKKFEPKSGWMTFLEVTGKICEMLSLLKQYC

[2] = target: T1, Bcl-2-related protein A1 (Homo sapiens); assay: Inhibition of BFL-1 in BFL-1 overexpressing isogenic human MV4-11 cells assessed as enhancement of 3 uM venetoclax-induced late apoptotic cells at 10 uM measured after 48 hrs in presence of doxycycline by flow cytometry based Annexin V-PE/7-ADD Apoptosis detection kit; assay type: cell-based; parameters: scale not given: the % may be the effect or the level left
MOLM-13 = assay: Antiproliferative activity against BFL-1 overexpressing isogenic human MOLM-13 cells assessed as inhibitory rate in presence of doxycycline; assay type: functional, cell-based
Pfeiffer [3] = assay: Inhibition of BFL-1/BIM interaction in human Pfeiffer cells assessed as decrease in BIM-associated BFL-1 level at 20 uM measured after 5 hrs by Co-IP assay; assay type: cell-based
[4] = target: T1, Bcl-2-related protein A1 (Homo sapiens); assay: Inhibition of BFL-1 in BFL-1 overexpressing isogenic human MOLM-13 cells assessed as enhancement of 3 uM venetoclax-induced late apoptotic cells at 15 uM measured after 24 hrs in presence of doxycycline by flow cytometry based Annexin V-PE/7-ADD Apoptosis detection kit; assay type: cell-based; parameters: scale not given: the % may be the effect or the level left
[5] = target: T1, Bcl-2-related protein A1 (Homo sapiens); assay: Inhibition of BFL-1 in BFL-1 overexpressing isogenic human MOLM-13 cells assessed as enhancement of 3 uM venetoclax-induced early apoptotic cells at 15 uM measured after 24 hrs in presence of doxycycline by flow cytometry based Annexin V-PE/7-ADD Apoptosis detection kit; assay type: cell-based; parameters: scale not given: the % may be the effect or the level left
[6] = target: T1, Bcl-2-related protein A1 (Homo sapiens); assay: Inhibition of BFL-1 in BFL-1 overexpressing isogenic human MV4-11 cells assessed as enhancement of 1 uM venetoclax-induced early apoptotic cells at 15 uM measured after 48 hrs in presence of doxycycline by flow cytometry based Annexin V-PE/7-ADD Apoptosis detection kit; assay type: cell-based; parameters: scale not given: the % may be the effect or the level left
[7] = target: T1, Bcl-2-related protein A1 (Homo sapiens); assay: Binding affinity to BFL-1 in BFL-1 overexpressing isogenic human MOLM-13 cells assessed as covalent modification by measuring irreversible alkylation of cellular FLAG-tagged BFL-1 measured after 24 hrs incubation by SDS-PAGE based immunoprecipitation assay; assay type: cell-based
[8] = target: T1, Bcl-2-related protein A1 (Homo sapiens); assay: Inhibition of BFL-1 in BFL-1 overexpressing isogenic human MV4-11 cells assessed as early apoptotic cells at 15 uM measured after 48 hrs in presence of doxycycline by flow cytometry based Annexin V-PE/7-ADD Apoptosis detection kit; assay type: cell-based; parameters: scale not given: the % may be the effect or the level left
[9] = target: T1, Bcl-2-related protein A1 (Homo sapiens); assay: Inhibition of BFL-1 in BFL-1 overexpressing isogenic human MV4-11 cells assessed as enhancement of venetoclax-induced increase in cytochrome c release in mitochondria at 20 uM in presence of doxycycline by Western blot analysis
[10] = target: T1, Bcl-2-related protein A1 (Homo sapiens); assay: Inhibition of BFL-1 in BFL-1 overexpressing isogenic human MV4-11 cells assessed as enhancement of 1 uM venetoclax-induced late apoptotic cells at 20 uM measured after 48 hrs in presence of doxycycline by flow cytometry based Annexin V-PE/7-ADD Apoptosis detection kit; assay type: cell-based; parameters: scale not given: the % may be the effect or the level left
[11] = target: T1, Bcl-2-related protein A1 (Homo sapiens); assay: Inhibition of BFL-1 in BFL-1 overexpressing isogenic human MV4-11 cells assessed as late apoptotic cells at 10 uM measured after 48 hrs in presence of doxycycline by flow cytometry based Annexin V-PE/7-ADD Apoptosis detection kit; assay type: cell-based; parameters: scale not given: the % may be the effect or the level left
[12] = target: T1, Bcl-2-related protein A1 (Homo sapiens); assay: Inhibition of BFL-1 in BFL-1 overexpressing isogenic human MV4-11 cells assessed as enhancement of 1 uM venetoclax-induced late apoptotic cells at 10 uM measured after 48 hrs in presence of doxycycline by flow cytometry based Annexin V-PE/7-ADD Apoptosis detection kit; assay type: cell-based; parameters: scale not given: the % may be the effect or the level left
[13] = target: T1, Bcl-2-related protein A1 (Homo sapiens); assay: Inhibition of BFL-1 in BFL-1 overexpressing isogenic human MOLM-13 cells assessed as late apoptotic cells at 10 uM measured after 24 hrs in presence of doxycycline by flow cytometry based Annexin V-PE/7-ADD Apoptosis detection kit; assay type: cell-based; parameters: scale not given: the % may be the effect or the level left
[14] = target: T1, Bcl-2-related protein A1 (Homo sapiens); assay: Inhibition of BFL-1 in BFL-1 overexpressing isogenic human MOLM-13 cells assessed as enhancement of 1 uM venetoclax-induced early apoptotic cells at 20 uM measured after 24 hrs in presence of doxycycline by flow cytometry based Annexin V-PE/7-ADD Apoptosis detection kit; assay type: cell-based; parameters: scale not given: the % may be the effect or the level left
[15] = target: T1, Bcl-2-related protein A1 (Homo sapiens); assay: Inhibition of BFL-1 in BFL-1 overexpressing isogenic human MOLM-13 cells assessed as enhancement of 3 uM venetoclax-induced late apoptotic cells at 10 uM measured after 24 hrs in presence of doxycycline by flow cytometry based Annexin V-PE/7-ADD Apoptosis detection kit; assay type: cell-based; parameters: scale not given: the % may be the effect or the level left
[16] = target: T1, Bcl-2-related protein A1 (Homo sapiens); assay: Inhibition of BFL-1 in BFL-1 overexpressing isogenic human MOLM-13 cells assessed as enhancement of 1 uM venetoclax-induced late apoptotic cells at 15 uM measured after 24 hrs in presence of doxycycline by flow cytometry based Annexin V-PE/7-ADD Apoptosis detection kit; assay type: cell-based; parameters: scale not given: the % may be the effect or the level left
[17] = target: T1, Bcl-2-related protein A1 (Homo sapiens); assay: Inhibition of BFL-1 in BFL-1 overexpressing isogenic human MV4-11 cells assessed as enhancement of 1 uM venetoclax-induced early apoptotic cells at 10 uM measured after 48 hrs in presence of doxycycline by flow cytometry based Annexin V-PE/7-ADD Apoptosis detection kit; assay type: cell-based; parameters: scale not given: the % may be the effect or the level left
[18] = target: T1, Bcl-2-related protein A1 (Homo sapiens); assay: Inhibition of BFL-1 in BFL-1 overexpressing isogenic human MOLM-13 cells assessed as early apoptotic cells at 10 uM measured after 24 hrs in presence of doxycycline by flow cytometry based Annexin V-PE/7-ADD Apoptosis detection kit; assay type: cell-based; parameters: scale not given: the % may be the effect or the level left
[19] = target: T1, Bcl-2-related protein A1 (Homo sapiens); assay: Inhibition of BFL-1 in BFL-1 overexpressing isogenic human MOLM-13 cells assessed as late apoptotic cells at 20 uM measured after 24 hrs in presence of doxycycline by flow cytometry based Annexin V-PE/7-ADD Apoptosis detection kit; assay type: cell-based; parameters: scale not given: the % may be the effect or the level left
[20] = target: T1, Bcl-2-related protein A1 (Homo sapiens); assay: Inhibition of BFL-1 in BFL-1 overexpressing isogenic human MOLM-13 cells assessed as enhancement of 1 uM venetoclax-induced late apoptotic cells at 20 uM measured after 24 hrs in presence of doxycycline by flow cytometry based Annexin V-PE/7-ADD Apoptosis detection kit; assay type: cell-based; parameters: scale not given: the % may be the effect or the level left
Pfeiffer [21] = assay: Inhibition of BCL-2/BIM interaction in human Pfeiffer cells assessed as decrease in BIM-associated BFL-1 level at 20 uM measured after 5 hrs by Co-IP assay; assay type: cell-based
[22] = target: T1, Bcl-2-related protein A1 (Homo sapiens); assay: Inhibition of BFL-1 in BFL-1 overexpressing isogenic human MV4-11 cells assessed as early apoptotic cells at 20 uM measured after 48 hrs in presence of doxycycline by flow cytometry based Annexin V-PE/7-ADD Apoptosis detection kit; assay type: cell-based; parameters: scale not given: the % may be the effect or the level left

In the case of C=CC(=O)Nc1ccc2c(c1)CCC(CN1CCN(c3ccc(C(=O)O)c(Oc4cnc5[nH]ccc5c4)c3)CC1)=C2c1ccc(Cl)cc1CC, the Activity [1] is reported as “Active”, the Activity [2] is reported as 44.1% and the Activity (MOLM-13) is reported as “Dose-Dependent Effect”. For the same compound, the Activity (Pfeiffer [3]) was “inactive”, the Activity [4] was 10.7% and the Activity [5] was 77.6%. For the same compound, the Activity [6] was 9.28%, the Activity [7] was 50% and the Activity [8] was 4.36%. For the same compound, the Activity [9] was “Active”, the Activity [10] was 77.3% and the Activity [11] was 4.58%. The Activity [12] was 35.6%, the Activity [13] was 1.9% and the Activity [14] was 78.9%. The Activity [15] was 8.04%, the Activity [16] was 9.59% and the Activity [17] was 6.03%. The Activity [18] was 7.84%, the Activity [19] was 5.63% and the Activity [20] was 13.5%. For the same compound, the Activity (Pfeiffer [21]) was “inactive” and the Activity [22] was 4.55%.
